Experimental findings from patent US10287301B2 (Achillion Pharmaceuticals, Inc., priority 2015, dated 2019) are described below.

Protein sequences, listed by entry. Tags and fused reporters are not part of them. Residues count along the entry.
UniProt P00746, 26-253: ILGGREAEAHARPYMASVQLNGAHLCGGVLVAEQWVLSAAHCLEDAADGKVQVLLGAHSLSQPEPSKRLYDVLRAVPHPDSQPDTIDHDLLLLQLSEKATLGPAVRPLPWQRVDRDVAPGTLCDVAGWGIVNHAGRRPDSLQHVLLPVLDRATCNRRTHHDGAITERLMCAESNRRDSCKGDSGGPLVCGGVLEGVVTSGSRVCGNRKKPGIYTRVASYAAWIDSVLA

For one assay, the target named is Human Factor D (Homo sapiens (Human), UniProt P00746). Description: Human Factor D Assay. The format is biochemical.
Settings: not given
The method, then: Human Factor D (purified from human serum, Complement Technology, Inc.) at 80 nM final concentration was incubated with test compound at various concentrations for 5 minutes at room temperature in 50 mM Tris, 1M NaCl, pH 7.5. A synthetic substrate Z-L-Lys-SBzl and DTNB (Ellman's reagent) are added to final concentrations of 100 μM each. […] IC50 values are calculated by nonlinear regression of complement Factor D reaction rates as a function of test compound concentration.
In the case of `NC(=O)c1nn(CC(=O)N2C[C@H](F)C[C@H]2C(=O)Nc2cncc(Cl)c2)c2ccc(-c3ccnnc3)cc12` [Compound 67, 1-(2-((2S,4R)-2-(5-chloropyridin-3-ylcarbamoyl)-4-fluoropyrrolidin-1-yl)-2-oxoethyl)-5-(pyridazin-4-yl)-1H-indazole-3-carboxamide], the IC50 fell in the range of 1 to 10 µM.

Turning to `NC(=O)c1nn(CC(=O)N2C[C@H](F)C[C@H]2C(=O)Nc2nc(-c3ccccc3Cl)ns2)c2ccc(-c3ccnnc3)cc12` [Compound 114, 1-(2-((2S,4R)-2-(3-(2-chlorophenyl)-1,2,4-thiadiazol-5-ylcarbamoyl)-4-fluoropyrrolidin-1-yl)-2-oxoethyl)-5-(pyridazin-4-yl)-1H-indazole-3-carboxamide], the IC50 is 1 to 10 µM.

Consider `CC(=O)c1cn(CC(=O)N2C[C@H](F)C[C@H]2C(=O)Nc2cccnc2Cl)c2ccc(-c3ccnnc3)cc12` [Compound 166, (2S,4R)-1-(2-(3-acetyl-5-(pyridazin-4-yl)-1H-indol-1-yl)acetyl)-N-(2-chloropyridin-3-yl)-4-fluoropyrrolidine-2-carboxamide], for which the IC50 is 1 to 10 µM.

Turning to `CC(=O)c1cn(CC(=O)N2C[C@H](F)C[C@H]2C(=O)NC2CCN(c3ccn(C)n3)C2=O)c2ccc(-c3ccnnc3)cc12` (stereo partly drawn) [Compound 167, (2S,4R)-1-(2-(3-acetyl-5-(pyridazin-4-yl)-1H-indol-1-yl)acetyl)-4-fluoro-N-(1-(1-methyl-1H-pyrazol-3-yl)-2-oxopyrrolidin-3-yl)pyrrolidine-2-carboxamide], the IC50 is 1 to 10 µM.

For `Cc1[nH]nc(NC(=O)[C@@H]2C[C@@H](F)CN2C(=O)Cn2nc(C(N)=O)c3cc(-c4ccnnc4)ccc32)c1-c1ccccc1` [Compound 170, 1-(2-((2S,4R)-4-fluoro-2-(5-methyl-4-phenyl-1H-pyrazol-3-ylcarbamoyl)pyrrolidin-1-yl)-2-oxoethyl)-5-(pyridazin-4-yl)-1H-indazole-3-carboxamide], the IC50 is 1 to 10 µM.

Regarding `CC(=O)c1cn(CC(=O)N2C[C@H](F)C[C@H]2C(=O)Nc2nn(C)c3c2CC(C)C(=O)N3)c2ccc(-c3ccnnc3)cc12` (stereo partly drawn) [Compound 171, (2S,4R)-1-(2-(3-acetyl-5-(pyridazin-4-yl)-1H-indol-1-yl)acetyl)-N-(1,5-dimethyl-6-oxo-4,5,6,7-tetrahydro-1H-pyrazolo[3,4-b]pyridin-3-yl)-4-fluoropyrrolidine-2-carboxamide], the IC50 was 1 to 10 µM.

Take `Cc1c([C@H](C)NC(=O)[C@@H]2C[C@@H](F)CN2C(=O)Cn2nc(C(N)=O)c3cc(-c4ccnnc4)ccc32)oc2ccc(F)cc12` [Compound 184, 1-(2-((2S,4R)-4-fluoro-2-((S)-1-(5-fluoro-3-methylbenzofuran-2-yl)ethylcarbamoyl)pyrrolidin-1-yl)-2-oxoethyl)-5-(pyridazin-4-yl)-1H-indazole-3-carboxamide]: the IC50 was in the range of 1 to 10 µM.

On to `CCCCCC(=O)NC1CCC(NC(=O)[C@@H]2C[C@@H](F)CN2C(=O)Cn2nc(C(C)=O)c3cc(-c4cnc(C)nc4)ccc32)CC1` (stereo partly drawn) [Compound 233, (2S,4R)-1-(2-(3-acetyl-5-(2-methylpyrimidin-5-yl)-1H-indazol-1-yl)acetyl)-4-fluoro-N-(4-hexanamidocyclohexyl) pyrrolidine-2-carboxamide], for which the IC50 fell in the range of 1 to 10 µM.

The compound `NC(=O)c1nn(CC(=O)N2C[C@H](F)C[C@H]2C(=O)Nc2cccc(Br)n2)c2ccc(-c3[nH]nnc3-c3ncccn3)cc12` [Compound 252, 1-(2-((2S,4R)-2-(6-bromopyridin-2-ylcarbamoyl)-4-fluoropyrrolidin-1-yl)-2-oxoethyl)-5-(4-(pyrimidin-2-yl)-1H-1,2,3-triazol-5-yl)-1H-indazole-3-carboxamide] yielded an IC50 of 1 to 10 µM.

`CC(=O)c1nn(CC(=O)N2C[C@H](F)C[C@H]2C(=O)Nc2cccc(Br)c2C#N)c2ccc(-c3cnc(C)nc3)cc12` [Compound 280, (2S,4R)-1-(2-(3-acetyl-5-(2-methylpyrimidin-5-yl)-1H-indazol-1-yl)acetyl)-N-(3-bromo-2-cyanophenyl)-4-fluoropyrrolidine-2-carboxamide]: the IC50 lay within 1 to 10 µM.

In the case of `CC(=O)c1nn([C@H](F)C(=O)N2C[C@H](F)C[C@H]2C(=O)Nc2cccc(Br)n2)c2ccc(-c3cnc(C)nc3)cc12` [Compound 411, (2S,4R)-1-((R)-2-(3-acetyl-5-(2-methylpyrimidin-5-yl)-1H-indazol-1-yl)-2-fluoroacetyl)-N-(6-bromopyridin-2-yl)-4-fluoropyrrolidine-2-carboxamide], the IC50 is 1 to 10 µM.

In turn, `CC(=O)c1nn(CC(=O)N2C[C@@H]3C[C@@H]3[C@@H]2C(=O)Nc2cccc(Br)n2)c2ccc(-c3cnc(C)nc3)cc12` [Compound 414, (1S,2R,5R)-3-(2-(3-Acetyl-5-(2-methylpyrimidin-5-yl)-1H-indazol-1-yl)acetyl)-N-(6-bromopyridin-2-yl)-3-azabicyclo[3.1.0]hexane-2-carboxamide] registered an IC50 of 1 to 10 µM.

Consider `Cc1ccc(-c2ccc3c(c2)c(C(N)=O)cn3CC(=O)N2[C@@H]3CC[C@@H](C3)[C@H]2C(=O)Nc2cccc(C)n2)cn1` [Compound 490, 1-(2-((1R,3S,4S)-3-(6-Methylpyridin-2-ylcarbamoyl)-2-azabicyclo[2.2.1]heptan-2-yl)-2-oxoethyl)-5-(6-methylpyridin-3-yl)-1H-indole-3-carboxamide], for which the half-inhibitory concentration (IC50) is over 10 µM.

In the case of `CC(=O)c1cn(CC(=O)N2C[C@H](F)C[C@H]2CCNS(=O)(=O)c2ccccc2)c2ccc(-c3cnc(C)nc3)cc12` [Compound 510, N-(2-((2R,4R)-1-(2-(3-Acetyl-5-(2-methylpyrimidin-5-yl)-1H-indol-1-yl)acetyl)-4-fluoropyrrolidin-2-yl)ethyl)benzenesulfonamide], the IC50 was in the range of 1 to 10 µM.

The assay is the same for the next values; noted with them: Human Factor D 80 nM, substrate Z-L-Lys-SBzl; read-out: IC50.
As to `CC(=O)c1nn(CC(=O)N2C[C@H](F)C[C@H]2C(=O)Nc2cccc(Br)n2)c2ccc(-c3cnc(C)nc3)cc12` [Compound 165, (2S,4R)-1-(2-(3-acetyl-5-(2-methylpyrimidin-5-yl)-1H-indazol-1-yl)acetyl)-N-(6-bromopyridin-2-yl)-4-fluoropyrrolidine-2-carboxamide], the IC50 was under 1 µM.

Regarding `Cc1c([C@@H](C)NC(=O)[C@@H]2C[C@@H](F)CN2C(=O)Cn2nc(C(N)=O)c3cc(-c4ccnnc4)ccc32)oc2ccc(F)cc12` [Compound 183, 1-(2-((2S,4R)-4-fluoro-2-((R)-1-(5-fluoro-3-methylbenzofuran-2-yl)ethylcarbamoyl)pyrrolidin-1-yl)-2-oxoethyl)-5-(pyridazin-4-yl)-1H-indazole-3-carboxamide], the IC50 was over 10 µM.

Still in this assay, the particulars now being: Human Factor D assay of Example 8; Table 2; read-out: IC50.
Consider `CC(=O)c1nn(CC(=O)N2C[C@@H](F)C[C@H]2C(=O)Nc2cccc(Br)n2)c2ccc(-c3cnc(C)nc3)cc12` [Compound 253, (2S,4S)-1-(2-(3-acetyl-5-(2-methylpyrimidin-5-yl)-1H-indazol-1-yl)acetyl)-N-(6-bromopyridin-2-yl)-4-fluoropyrrolidine-2-carboxamide], for which the half-inhibitory concentration (IC50) was under 1 µM.

Staying with this assay, now noted: Table 3; Human Factor D 80 nM, substrate Z-L-Lys-SBzl; read-out: IC50 (Stars).
For the compound `CC(=O)c1nn([C@@H](F)C(=O)N2C[C@H](F)C[C@H]2C(=O)Nc2cccc(Br)n2)c2ccc(-c3cnc(C)nc3)cc12` [Compound 412, (2S,4R)-1-((S)-2-(3-acetyl-5-(2-methylpyrimidin-5-yl)-1H-indazol-1-yl)-2-fluoroacetyl)-N-(6-bromopyridin-2-yl)-4-fluoropyrrolidine-2-carboxamide], the IC50 is under 1 µM.

With `CC(=O)c1nn(CC(=O)N2C[C@H](F)CC2C(=O)Nc2cccc(Br)n2)c2ccc(-c3cnc(C)nc3)cc12` (stereo partly shown) [Compound 476], the IC50 was over 10 µM.

The term IC50 denotes the concentration needed to halve the response being measured.
